Patent US20120238630A1, “COMPOSITIONS COMPRISING NONSTEROIDAL ANTI - INFLAMMATORY DRUGS” (Alfa Wassermann S.P.A., priority 2009, published 2012)

Assay: Bioavailability / systemic FP plasma concentration after oral nebulization of the liquid composition containing FP
Type: in vivo, human
Conditions: after the last administration (day 8)
Procedure: The liquid compositions containing FP, object of the present invention, have been tested in a clinical study to evaluate the local and systemic tolerability after repeated dosages and to determine the kinetic profiles indicating the levels of systemic absorption. The solutions have been administered to 26 healthy volunteers, among whom 16 were males and 10 females, aged between 18 and 55.
The healthy volunteers received the pharmaceutical composition prepared according to Example 1 in two 200 μl nebulizations three times a day, for a seven-day period, then a single administration on the eighth day. […]
After the end of the treatment, the FP concentration has been determined for further 24 hours corresponding to hour 1, 2, 3, 4, 6, 8, 10, 12, 16 and 24 after the last administration. […]
The plasma concentration was determined for each patient before the first dose and, successively, in the morning of the days 1, 4, 6, 7 and 8 and after 1, 2, 3, 4, 6, 8, 10, 12, 16 and 24 hours since the last treatment. […]
The concentration of FP contained in plasma is represented by the average of the values obtained by the analysis carried out with the method validated in HPLC by using a reversed phase column Hypersil C8 having a size 150×4.6 mm, with 5 μm particles. […] The following parameters were determined: […]
AUC: area subtended to the concentration-time curve calculated by means of the linear trapezoidal rule. […]

With “2-(2-fluoro-4-phenyl-phenyl) propionic acid [FP]” the “removal time (T1/2)” value was 4.47 ± 1.7 h and the “FP half-life (T1/2)” value (unit not given) was 4.47.
